# Apparent affinities of Ab-95 variants for a coronavirus HR2 peptide

The target is the same throughout: PDVDLGDISGINAS, from the HR2 region of SARS-CoV-2 spike.

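The library (AAYL52) carries one to three amino acid substitutions per variant, with no insertions or deletions. AlphaSeq pools MATa yeast showing the antibodies with MATalpha yeast showing the peptide. After mating in shaken culture at 30 °C for 16 h, diploids were selected and their barcode pairs sequenced. The ratio of observed to expected reads was calibrated, replicate by replicate, on BCL2-family standards whose Kd was known from biolayer interferometry. The assay was run in three technical replicates.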

Each scFv is VH, a 15-residue (Gly4Ser)3 linker, VL, as in the parent Ab-95, and differs from it in the CDRs of the light chain only.
VH: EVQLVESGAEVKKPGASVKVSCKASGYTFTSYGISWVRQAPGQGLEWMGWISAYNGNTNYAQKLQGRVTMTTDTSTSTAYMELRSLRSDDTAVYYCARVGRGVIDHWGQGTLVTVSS
VL: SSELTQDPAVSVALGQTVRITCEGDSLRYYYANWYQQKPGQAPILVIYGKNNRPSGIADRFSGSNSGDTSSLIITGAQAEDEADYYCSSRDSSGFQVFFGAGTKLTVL

The whole VL of each variant is written out. Values are log10 of the apparent Kd in nM; lower means stronger binding. Where no diploid with the target was found in that replicate, the entry reads "nd": below detection, most likely a poor binder, though not proof of it.

| VL | replicates, log10 nM | signal with controls |
|---|---|---|
| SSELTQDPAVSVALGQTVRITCEGDGLRYYYANWYQQKPGQAPILVIYGKNNRPSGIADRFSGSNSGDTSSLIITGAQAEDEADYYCSWRKSSGFQVFFGAGTKLTVL | nd / 4.58 / nd | 3 of 9 (3.17) |
| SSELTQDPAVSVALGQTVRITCEGDSLRYYYANWYQQKPGQAPILVIYGNNNRPQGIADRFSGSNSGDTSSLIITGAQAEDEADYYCSSPDSSGFQVFFGAGTKLTVL | nd / nd / nd | 1 of 9 (3.45) |
| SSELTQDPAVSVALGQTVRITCEGDSLRYYYANWYQQKPGQAPILVIYGKNNRPSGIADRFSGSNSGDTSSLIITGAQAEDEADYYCSSIDSSCFNVFFGAGTKLTVL | nd / nd / nd | 2 of 9 (3.08) |
| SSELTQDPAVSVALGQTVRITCERDALRYYYANWYQQKPGQAPILVIYGKNNRPSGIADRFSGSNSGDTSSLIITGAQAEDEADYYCSSRDSSGFQVMFGAGTKLTVL | 3.43 / 3.41 / 2.67 | 8 of 9 (4.16) |
| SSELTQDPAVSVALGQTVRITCEADSLRYYYANWYQQKPGQAPILVIYGKNNRPSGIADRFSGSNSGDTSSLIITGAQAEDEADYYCSIRDSSGAQVFFGAGTKLTVL | 4.07 / 4.05 / nd | 2 of 9 (4.54) |
| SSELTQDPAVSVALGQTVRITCEDDSERYYYASWYQQKPGQAPILVIYGKNNRPSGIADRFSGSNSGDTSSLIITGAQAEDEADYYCSSRDSSGFQVFFGAGTKLTVL | 2.99 / 3.20 / 2.98 | 4 of 9 (4.10) |
| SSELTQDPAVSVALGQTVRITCEGDSLRDYYANWYQQKPGQAPILVIYGKNMRVSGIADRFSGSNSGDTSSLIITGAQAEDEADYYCSSRDSSGFQVFFGAGTKLTVL | 2.04 / 2.67 / 2.92 | 2 of 9 (3.33) |
| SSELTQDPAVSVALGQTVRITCEGDSLRYYYACWYQQKPGQAPILVIYGKNNRPSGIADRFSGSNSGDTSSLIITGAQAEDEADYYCSSRDSEGFTVFFGAGTKLTVL | nd / 4.00 / 4.44 | 4 of 9 (4.08) |
| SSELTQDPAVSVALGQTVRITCEGQSLMYYYANWYQQKPGQAPILVIYGKNNRPSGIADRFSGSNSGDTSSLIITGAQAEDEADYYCGSRDSSGFQVFFGAGTKLTVL | 3.37 / 3.46 / 3.32 | 5 of 9 (4.10) |
| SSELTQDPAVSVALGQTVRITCEGDSLRYYILNWYQQKPGQAPILVIYGKNNRPSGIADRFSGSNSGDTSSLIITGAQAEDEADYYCSSRDSSGFQTFFGAGTKLTVL | nd / nd / 3.86 | 2 of 9 (3.71) |
| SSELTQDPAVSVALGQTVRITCEGDSLRYYYANWYQQKPGQAPILVIYGKNNRPSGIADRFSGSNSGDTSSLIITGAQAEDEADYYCSSWQSSGFQVFFGAGTKLTVL | 1.90 / 1.71 / 1.48 | 2 of 9 (3.61) |
| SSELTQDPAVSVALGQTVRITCEGDSLRYYYANWYQQKPGQAPILVIYGKNNRPSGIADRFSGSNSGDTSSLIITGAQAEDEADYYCSSRDESRFQVWFGAGTKLTVL | 2.11 / 1.66 / 1.88 | 3 of 9 (3.46) |
| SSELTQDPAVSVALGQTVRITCEGDSLRYYYANWYQQKPGQAPILVIYGKNNRPSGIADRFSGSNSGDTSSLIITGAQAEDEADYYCSSRYSSGFQVFFGAGTKLTVL | nd / 3.58 / nd | 0 of 9 |
| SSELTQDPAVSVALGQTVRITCEGDSLRYDYAHWYQQKPGQAPILVIYGKNNRPSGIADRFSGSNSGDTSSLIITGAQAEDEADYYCSSTDSSGFQVFFGAGTKLTVL | 4.25 / 3.87 / nd | 1 of 9 (3.35) |
| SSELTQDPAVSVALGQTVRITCEGDSLRYYYANWYQQKPGQAPILVIYGKNMRPSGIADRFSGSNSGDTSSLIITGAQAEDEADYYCSSRISSSFQVFFGAGTKLTVL | 2.43 / 2.30 / 1.90 | 3 of 9 (4.67) |
| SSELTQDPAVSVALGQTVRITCEGDSLRYYYATWYQQKPGQAPILVIYGKNNRFSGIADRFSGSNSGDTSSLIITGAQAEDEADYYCSSRDSSGFQPFFGAGTKLTVL | nd / nd / nd | 1 of 9 (4.17) |

Picked from the list: the 2 lowest averages where every replicate gave a value.

VL,"replicates, log10 nM",signal with controls
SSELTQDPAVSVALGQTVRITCEGDSLRYYYANWYQQKPGQAPILVIYGKNNRPSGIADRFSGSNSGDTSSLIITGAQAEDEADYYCSSWQSSGFQVFFGAGTKLTVL,1.90 / 1.71 / 1.48,2 of 9 (3.61)
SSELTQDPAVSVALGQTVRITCEGDSLRYYYANWYQQKPGQAPILVIYGKNNRPSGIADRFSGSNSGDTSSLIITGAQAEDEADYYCSSRDESRFQVWFGAGTKLTVL,2.11 / 1.66 / 1.88,3 of 9 (3.46)

For reference, the parent read 2.31 as the reference entry and 2.25 as a member of this library. Nonspecific signal, from three strains lacking the peptide, appeared in 28% of pairings of library AAYL52, centred on 3.91 (5% of these signals below 2.90); values are not corrected for it. Also given: how often the same scFv was detected with the empty control strains, with their mean in brackets.

Data: MIT Lincoln Laboratory AlphaSeq set, Engelhart et al. 2022, doi:10.1038/s41597-022-01779-4, as distributed in FLAb.